How the values were obtained:
human MRGPRX2 = human MRGPRX2 (Homo sapiens, UniProt Q96LB1); assay: MRGPRX2 in vitro calcium flux assay; settings: CHO stably-transfected cell line highly expressing human MRGPRX2; agonist C48/80; FLIPR fluorescence
Method: The antagonistic effect of the compounds on MRGPRX2 was determined in a CHO stably-transfected cell line that highly expresses human MRGPRX2. 18 h before the assay, cells were seeded in a black-wall transparent base plate containing DMEM/F12 (1:1) medium at a specific density and incubated at 37 °C with 5% CO2 for 18 h. Then, an appropriate amount of dye solution was added to each well, and the cells were incubated for another 30 min in the incubator at 37 °C in the dark. The cells were further incubated for 10 min at room temperature in the dark. Subsequently, the compounds at different final concentrations were added to each well and equilibrated for 20 min. Finally, a certain amount of C48/80 solution was added to the cells, and fluorescence signals were measured using FLIPR. The concentration of the compound was plotted on the X-axis, and the fluorescence signal value was plotted on the Y-axis. The antagonistic effect (IC50 value) of the compound was calculated using GraphPad Prism 8.0 software. A denotes an IC50 value ≤ 100 nM, B denotes 100 nM < IC50 value ≤ 500 nM, and C denotes an IC50 value greater than 500 nM.

Protein sequences, listed by entry. Tags and fused reporters are not part of them.
UniProt Q96LB1, whole entry: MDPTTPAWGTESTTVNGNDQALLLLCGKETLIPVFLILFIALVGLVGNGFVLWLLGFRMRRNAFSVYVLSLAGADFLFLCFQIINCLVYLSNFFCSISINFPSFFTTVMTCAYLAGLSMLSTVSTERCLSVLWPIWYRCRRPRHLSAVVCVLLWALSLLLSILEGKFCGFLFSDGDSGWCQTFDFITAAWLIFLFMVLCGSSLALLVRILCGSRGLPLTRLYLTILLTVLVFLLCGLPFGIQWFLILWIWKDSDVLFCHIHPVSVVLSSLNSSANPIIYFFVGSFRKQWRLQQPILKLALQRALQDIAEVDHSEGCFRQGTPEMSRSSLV

HepG2 cells = assay: Hepatotoxicity assay (HepG2 cell viability, CellTiter-Glo); settings: inhibition of viability of HepG2 cells, 72 h
Method: The hepatotoxicity assay for the compounds was performed using HepG2 (ATCC, HB-8065) cells. Cell viability was determined using a CellTiter-Glo Luminescent Cell Viability Assay kit (Promega, G7573), and the toxicity of the compounds was characterized by the inhibition of viability of HepG2 cells. HepG2 cells in the logarithmic growth phase were collected, the concentration of the cell suspension was adjusted, and then the cells were plated on a 96-well cell culture plate at 5000 cells/well. The cells were incubated in a cell incubator with 5% CO2 at 37 °C overnight, and the next day, medium change was performed, and compound solutions at different concentrations were added. Meanwhile, a negative control group (cells + DMSO) and a blank control group (medium + DMSO) were set, and the cells were incubated in the cell incubator with 5% CO2 at 37 °C for 72 h. After the treatment was completed, procedures were performed according to the instructions of the kit, and luminescence signal values in different wells were measured using an EnVision plate reader (2104). The inhibition of the viability of HepG2 cells by the compounds at different concentrations was calculated according to the following formula. The concentration of the compound was plotted on the X-axis, and the inhibition rate was plotted on the Y-axis. The toxic effect (IC50 value) of the compound on HepG2 was calculated using GraphPad Prism 8.0 software. Inhibition rate (%) = (1−(signal value of each compound group−signal value of blank control group)/(signal value of negative control group−signal value of blank control group)) × 100% [formula] Table 3: Assay results of toxicity on HepG2

SMILES | IC50 (human MRGPRX2) [µM] | IC50 (HepG2 cells) [µM]
COc1ccc(C(=O)NC2CCC(Nc3cc(C(F)(F)F)c(=O)n(C)n3)CC2)cc1 (stereo not shown) | < 0.1 | > 100
Cn1nc(N[C@H]2CC[C@@H](NC(=O)c3cn(CC(F)(F)F)nc3Cl)CC2)cc(C(F)(F)F)c1=O | < 0.1 | > 100
